From US6812230B2, “Non-peptide CCR1 receptor antagonists for the treatment of progressive renal fibrosis” (Schering Aktiengesellschaft, priority 2001, dated 2004)

Key:
Details in all cases: mouse, in vivo
[1] = test system: unilateral ureteral obstruction (UUO), obstructed kidneys
[2] = test system: CCR5+ / CCR2+ T cells infiltrating the obstructed kidneys
[3] = test system: unilateral ureteral obstruction (UUO), obstructed kidneys; remark: listed apart in the source

C[C@@H]1CN(Cc2ccc(F)cc2)CCN1C(=O)COc1ccc(Cl)cc1NC(N)=O [BX471, (2R)-1-((4-chloro-2-(ureido)phenoxy)methyl)carbonyl-2-methyl-4-(4-fluorobenzyl)piperazine] was tested. Which “tubular dilatation, obstructed kidneys” value [1] did it give?
Its value is “unaffected”.

What about the “tubular epithelial cell damage, obstructed kidneys” value [1] of the same compound?
Its value is “unaffected”.

What about the “number of CCR5+ CD4+, CCR2+ CD4+ or CCR2+ CD8+ T cells in obstructed kidneys, vehicle as compared to antagonist” value [2] of the same compound?
Its value is “No increase”.

What about the “number of CCR5+ CD8+ T cells infiltrating the obstructed kidneys” value [2] of the same compound?
Its value is 44.2%.

What about the “mean number of activated fibroblasts in the peritubular interstitium, obstructed kidneys” value [3] of the same compound?
Its value is “significantly decreased”.

And the “mean number of infiltrating leukocytes in the peritubular interstitium, obstructed kidneys” value [3]?
The value was “significantly decreased”.

And the “number of activated fibroblasts, obstructed kidneys” value [3]?
The value was “no significant decrease”.

What about the “number of infiltrating leukocytes, obstructed kidneys” value [3] of the same compound?
Its value is “no significant decrease”.
